According to ChEMBL document CHEMBL5725517, “Azapeptides as CD36 binding compounds” (2017):

Test: HS-R1a radioreceptor assay: GHS-R1a radioreceptor assay using LLCPK-1 membranes overexpressing GSH-R1a and radioiodinated (1-28) rat ghrelin as tracer.

EC50	SMILES
729 nM	C[C@H](NC(=O)N(CCc1ccccc1)NC(=O)[C@@H](N)Cc1cnc[nH]1)C(=O)N[C@@H](Cc1c[nH]c2ccccc12)C(=O)N[C@H](Cc1ccccc1)C(=O)N[C@@H](CCCCN)C(N)=O
808 nM	NCCCC[C@H](NC(=O)[C@@H](Cc1ccccc1)NC(=O)[C@H](Cc1c[nH]c2ccccc12)NC(=O)NNC(=O)[C@@H](Cc1c[nH]c2ccccc12)NC(=O)[C@@H](N)Cc1cnc[nH]1)C(N)=O
